Assay results published in patent US9795602B2, “Polycyclic-carbamoylpyridone compounds and their pharmaceutical use” (Gilead Sciences, Inc., priority 2014, dated 2017).

The chains behind the UniProt entries cited, without tags or fusion partners. Where a name states a change or a piece, a line headed by the entry shows the natural chain unless it says otherwise.
UniProt O15244: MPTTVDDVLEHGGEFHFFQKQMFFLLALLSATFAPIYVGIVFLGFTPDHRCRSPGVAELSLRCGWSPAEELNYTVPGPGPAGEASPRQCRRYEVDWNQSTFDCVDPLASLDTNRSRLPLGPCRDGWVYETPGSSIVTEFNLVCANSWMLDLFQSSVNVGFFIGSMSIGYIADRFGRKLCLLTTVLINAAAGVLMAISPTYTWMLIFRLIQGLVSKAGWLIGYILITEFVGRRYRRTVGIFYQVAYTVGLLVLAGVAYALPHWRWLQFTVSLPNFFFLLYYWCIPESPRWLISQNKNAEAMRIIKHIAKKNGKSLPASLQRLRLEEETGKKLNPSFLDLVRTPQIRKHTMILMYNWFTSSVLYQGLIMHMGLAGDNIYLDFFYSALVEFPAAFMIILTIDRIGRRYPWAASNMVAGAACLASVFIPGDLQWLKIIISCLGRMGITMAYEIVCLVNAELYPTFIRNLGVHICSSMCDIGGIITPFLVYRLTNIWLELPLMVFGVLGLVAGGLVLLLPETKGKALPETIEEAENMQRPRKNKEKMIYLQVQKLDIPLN

What was measured:
[1] = Cytotoxicity (CC50) in MT4 cells, mock-infected; type: cell-based; conditions: human
[2] = biological target: OCT2 (Homo sapiens (Human), UniProt O15244); test: OCT2 inhibition assay (14C-TEA uptake, OCT2-transfected MDCKII cells); type: cell-based

IC50 [2] [µM] | SMILES | CC50 at 5 days [1] [µM]
 | CN1C(=O)c2c(O)c(=O)c(C(=O)NCc3c(F)cc(F)cc3F)cn2[C@@H]2CCC[C@H]21 [Compound 6] | 22
10 | O=C(NCc1c(F)cc(F)cc1F)c1cn2c(c(O)c1=O)C(=O)N[C@H]1CCC[C@H]12 [Compound 28] | 
 | CN1C(=O)c2c(O)c(=O)c(C(=O)NCc3c(F)cc(F)cc3F)cn2[C@@H]2CCC[C@@H]21 [Compound 29] | 16.7
 | CN1C(=O)c2c(O)c(=O)c(C(=O)NCc3c(F)cc(F)cc3F)cn2[C@H]2CCC[C@H]21 [Compound 58] | 10.9
